Measured values published in patent US20060171941A1.

Target: bovine submaxillary mucin (TAG-72 positive) (bovine)
Assay: competition RIA against 125I-mCC49 on BSM; relative affinity constant, modified Scatchard

Substance: murine CC49 monoclonal antibody
- Ka: 1.98e+08 M⁻¹
